Test results published in US12110276B2 (Genentech, Inc., priority 2021, dated 2024).

Amino acid sequences for entries named in this document (tags omitted).
UniProt Q99594, whole entry, species assumed: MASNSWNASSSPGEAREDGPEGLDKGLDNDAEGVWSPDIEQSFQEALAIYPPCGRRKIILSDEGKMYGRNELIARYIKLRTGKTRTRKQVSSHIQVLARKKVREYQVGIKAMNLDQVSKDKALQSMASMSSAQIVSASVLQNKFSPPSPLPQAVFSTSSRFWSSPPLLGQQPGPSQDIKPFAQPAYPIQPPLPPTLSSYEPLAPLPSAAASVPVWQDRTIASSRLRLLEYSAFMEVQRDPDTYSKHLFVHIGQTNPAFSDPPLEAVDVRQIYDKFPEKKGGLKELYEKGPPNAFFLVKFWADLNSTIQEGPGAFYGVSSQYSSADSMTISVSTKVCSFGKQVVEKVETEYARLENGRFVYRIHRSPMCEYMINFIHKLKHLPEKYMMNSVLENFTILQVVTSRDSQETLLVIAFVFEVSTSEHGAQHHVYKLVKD
UniProt Q15562, whole entry, species assumed: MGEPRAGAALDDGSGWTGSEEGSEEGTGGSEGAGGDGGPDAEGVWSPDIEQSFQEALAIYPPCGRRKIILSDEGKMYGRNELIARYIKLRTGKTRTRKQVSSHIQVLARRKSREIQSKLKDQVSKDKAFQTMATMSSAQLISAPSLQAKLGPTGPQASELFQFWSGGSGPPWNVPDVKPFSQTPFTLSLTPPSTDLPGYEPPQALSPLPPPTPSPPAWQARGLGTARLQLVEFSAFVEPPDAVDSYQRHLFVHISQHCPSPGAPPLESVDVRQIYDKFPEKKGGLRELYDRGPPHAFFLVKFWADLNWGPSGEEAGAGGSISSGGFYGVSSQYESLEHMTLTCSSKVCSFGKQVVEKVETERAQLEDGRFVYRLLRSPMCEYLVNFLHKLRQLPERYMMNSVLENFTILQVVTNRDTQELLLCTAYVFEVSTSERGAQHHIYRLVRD

Columns and labels:
TEAD3 = TEAD3 (Homo sapiens (Human), UniProt Q99594); assay: TR-FRET lipid pocket probe competition assay (Lipid HTRF), TEAD3; format: binding; conditions: 4 hours pre-incubation
TEAD2 = TEAD2 (Homo sapiens (Human), UniProt Q15562);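 also: TR-FRET competition assay with His-tagged TEAD protein and a biotinylated lipid pocket probe, compound pre-incubated 30 min or 4 h at room temperature, displacement lowers signal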

Row | IC50 (TEAD2) | Compound | IC50 (TEAD3)
1 |  | C=CC(=O)NCc1nn(-c2ccc(OC(F)(F)F)cc2)c2nccc([C@H](O)COC(=O)CN)c12 [Compound 145, (S)-2-(3-(Acrylamidomethyl)-1-(4-(trifluoromethoxy)phenyl)-1H-pyrazolo[3,4-b]pyridin-4-yl)-2-hydroxyethyl 2-aminoacetate formate] | 5.5 µM
2 |  | C=CC(=O)NCc1nn(-c2ccc(OC(F)(F)F)cc2)c2nccc([C@H](O)COC(C)=O)c12 [Compound 146, (S)-2-(3-(Acrylamidomethyl)-1-(4-(trifluoromethoxy)phenyl)-1H-pyrazolo[3,4-b]pyridin-4-yl)-2-hydroxyethyl acetate] | 2.8 µM
3 |  | C=CC(=O)NCc1nn(-c2ccc(OC(F)(F)F)cc2)c2nccc([C@H](O)COP(=O)(O)O)c12 [Compound 147, (S)-2-(3-(Acrylamidomethyl)-1-(4-(trifluoromethoxy)phenyl)-1H-pyrazolo[3,4-b]pyridin-4-yl)-2-hydroxyethyl dihydrogen phosphate] | 50 µM
4 | 0.033 µM | C=C(F)C(=O)N1CC(c2nn(-c3ccc(S(F)(F)(F)(F)F)cc3)c3nccc([C@H](O)CO)c23)C1 [Compound 59, (S)-1-(3-(4-(1,2-dihydroxyethyl)-1-(4-(pentafluoro-λ^6-sulfanyl)phenyl)-1H-pyrazolo[3,4-b]pyridin-3-yl)azetidin-1-yl)-2-fluoroprop-2-en-1-one] | 

Where a name gives a salt, the structure may show the parent alone.
